## scFv variants of Ab-14 (heavy chain) against a SARS-CoV-2 spike peptide

Binding partner: SARS-CoV-2 spike HR2 peptide, sequence PDVDLGDISGINAS.

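The parent was found by panning a naive human phage display library on the peptide. In library AAYL49, one, two or three CDR residues were substituted; doubles and triples were drawn at random. The scFvs were displayed on barcoded MATa yeast, the peptide on MATalpha yeast. Mating (16 h, 30 °C) was followed by selection of diploids and sequencing of their barcodes. Scores were corrected for input abundance and mapped to Kd with protein pairs of known affinity run in the same pool. Each pool was mated in three replicate cultures.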

Ab-14 is the parent antibody, in scFv form: VH, then a 15-residue (Gly4Ser)3 linker, then VL. The light chain is unchanged in all variants.
VH: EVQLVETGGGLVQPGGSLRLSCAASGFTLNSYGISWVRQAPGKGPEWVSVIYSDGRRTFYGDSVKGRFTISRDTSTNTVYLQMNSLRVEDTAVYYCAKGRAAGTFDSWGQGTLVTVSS
VL: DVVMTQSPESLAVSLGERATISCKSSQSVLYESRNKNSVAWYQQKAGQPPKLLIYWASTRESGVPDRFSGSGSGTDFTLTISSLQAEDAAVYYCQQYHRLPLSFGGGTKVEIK

The parent's heavy chain CDRs are GFTLNSYGIS, VIYSDGRRTFYGDSVK, GRAAGTFDS; each variant's own CDRs replace them letter for letter. Numbers give log10(Kd / nM), so 0 is 1 nM and 3 is 1 µM. Smaller is tighter. Where no diploid with the target was found in that replicate, the entry reads "nd": below detection, most likely a poor binder, though not proof of it. Empty control strains, which show no peptide, gave a signal in 15% of pairings with library AAYL49; the median was 4.06 and 95% of these signals were weaker than 2.83. No background was subtracted. Also given: how often the same scFv was detected with the empty control strains, with their mean in brackets. For reference, the parent read 0.65 as the reference entry and 4.11 (one replicate of three) as a member of this library.

CDR-H1,CDR-H2,CDR-H3,log10 Kd (nM) by replicate,signal with controls
GFTLNSYGPS,VIASDGRRTFYGHSVK,GRAAGTFDS,nd / nd / nd,0 of 9
GFTLNSYGIS,VIYSDGWRTFYGDSVK,GRAAGTFDS,nd / nd / nd,1 of 9 (2.91)
GFTLNSYGPS,VIYSDGHRTFYGDSVK,GRAAGTFIS,nd / nd / nd,0 of 9
GFTLNSYGIS,VIYDDGRRTYYVDSVK,GRAAGTFDS,5.16 / 4.26 / 4.07,5 of 9 (4.70)
GFTLNSYGIS,VIYSSERRTFYGDSVL,GRAAGTFDS,nd / nd / nd,3 of 9 (3.81)
GFSLNSHGIS,VIYSDGRRTFYGDSCK,GRAAGTFDS,3.85 / 3.31 / 4.36,7 of 9 (4.80)
GFTLNSYGIS,VIYSDWRRTWYGDSVK,GRAAGHFDS,nd / 3.34 / nd,1 of 9 (3.92)
GQTLNSYGIS,VIYSDGRRTFYGASVK,GRAAGTFDM,1.89 / 1.17 / 1.38,1 of 9 (5.29)
GLTLNSYGIS,VIYSDGRRTFYGYSVK,GRAAGSFDS,nd / nd / nd,2 of 9 (3.85)
GFTLNSYGIS,VIYSDGRRTFYGCCVK,GRAAGTFVS,nd / 2.48 / nd,0 of 9
GFTLNSYGIK,VILSDGRRTFYGDSVK,GRAAGTFDD,nd / 3.94 / 5.22,1 of 9 (4.42)
GFTLNSYGIS,VIYSDGRRTFYGDSVK,GRAAGTKDS,3.28 / 3.13 / 4.26,3 of 9 (4.43)
GFTLNSYGIS,VIYSDGRRTFYGMSVK,GRAAGTEAS,nd / nd / nd,0 of 9
GFTLNSYGIS,VIYSDGRRTFYFFSVK,VRAAGTFDS,nd / nd / nd,0 of 9
GFTLNSYGIS,VIYSDGMRTFYFDSVK,TRAAGTFDS,4.29 / 3.38 / 3.92,2 of 9 (4.59)
GFTLNSAGIS,VIYSDGRFTFYGDSVK,GRAADTFDS,4.50 / 3.92 / nd,1 of 9 (3.17)
GFTLNSYGIS,QIYSDGRRKFYGDSVK,VRAAGTFDS,3.89 / nd / nd,1 of 9 (5.38)
GFTLNMYGIS,VSYSDGRRTFYGFSVK,GRAAGTFDS,nd / nd / nd,0 of 9
GWTLLSYGIS,VIYSDGRRTFYGDSVK,GRAAGTFDT,nd / nd / nd,1 of 9 (2.68)
GFTLNSYGIS,VIYSDGRRTNYGDSVK,GRAAGTFDK,2.17 / 2.18 / 2.29,0 of 9
GFTLNSYGIW,VIYSDGRRTFYRDSVK,GRAAGTFDS,nd / nd / nd,0 of 9
GFTLCSYGIS,VITSMGRRTFYGDSVK,GRAAGTFDS,nd / nd / nd,0 of 9
GFTLNSYGIS,VIYSDGRGTFYEDSVK,GRAACTFDS,nd / nd / nd,1 of 9 (3.63)
EFTLNSYGIS,VIYQDGRRTFYGDSVK,GRGAGTFDS,2.42 / 2.44 / 3.07,4 of 9 (4.36)
GFTLNSYGIS,VIYSDGRRKGYGDSVK,DRAAGTFDS,nd / nd / nd,3 of 9 (3.60)
GFTLNSYGIS,VIYSYGRRTCYGDSWK,GRAAGTFDS,nd / nd / nd,0 of 9
GFTLNIKGIS,VIYSDGRRTWYGDSVK,GRAAGTFDS,nd / 4.61 / nd,1 of 9 (2.74)
GFTLNSHGIS,VIYSDGRRTFYLDSVK,GRQAGTFDS,0.35 / 0.54 / 1.09,0 of 9
GFTLNSYGIS,VEYSDGRRTFEGDSVS,GRAAGTFDS,nd / 5.02 / 3.60,2 of 9 (3.75)
GFTLHSYGIS,VIYSDGRRTTYGDSVK,GRAKGTFDS,2.93 / nd / nd,0 of 9
GFTLDSYGIV,VIYSDGRRTFYADSVK,GRAAGTFDS,nd / nd / nd,1 of 9 (3.59)
GFTLNSYGIS,DIYSDGRRWTYGDSVK,GRAAGTFDS,nd / nd / nd,0 of 9
GFTLESYGIS,VIYSDGRRMFYGDSVK,GRAAITFDS,nd / nd / nd,2 of 9 (4.01)
GFTLNSYGIS,VIYSDGRRTEYGDSVK,GRDAGTFDS,2.04 / 1.33 / 2.06,0 of 9
GFTLNSYGIS,VFYSDGRRTFYHDSHK,GRAAGTFDS,nd / nd / 5.03,1 of 9 (3.39)
GDTLNQYGIS,VIYSDGRRTFYGDSVK,CRAAGTFDS,4.45 / 4.12 / nd,8 of 9 (4.62)
GFTLNWYGIS,VIYSDGRRTFYGDSVK,GRKAGTNDS,nd / nd / nd,0 of 9
GFTLNSYGIS,VIYSDGRRTFYGDSVK,LRAAGTFDT,nd / nd / nd,2 of 9 (3.99)
GFTLNSYGIS,VIYSDGRRTFYLDSVK,GRGAGTSDS,1.23 / 1.58 / 1.82,2 of 9 (3.94)
GFTLNSYGIS,VIYSDGRRTFDGDRVY,GRAAGTFDS,nd / nd / 4.25,2 of 9 (3.80)
GFTLNSYGIS,VIYSFGRRTFYGDSVK,GRAAGTFYS,nd / nd / nd,0 of 9

4 of these entries, quoted again:

CDR-H1,CDR-H2,CDR-H3,log10 Kd (nM) by replicate,signal with controls
GFTLNIKGIS,VIYSDGRRTWYGDSVK,GRAAGTFDS,nd / 4.61 / nd,1 of 9 (2.74)
GFTLNSYGIS,VIYSDGRRTFYGDSVK,GRAAGTKDS,3.28 / 3.13 / 4.26,3 of 9 (4.43)
GFTLNSYGIS,VIYSDWRRTWYGDSVK,GRAAGHFDS,nd / 3.34 / nd,1 of 9 (3.92)
GFSLNSHGIS,VIYSDGRRTFYGDSCK,GRAAGTFDS,3.85 / 3.31 / 4.36,7 of 9 (4.80)

Reference: Engelhart et al. 2022, doi:10.1038/s41597-022-01779-4. File: FLAb, binding data.